Assay: in vitro
Conditions: CD1, mouse, liver microsomes

half-life at 1 h: 21.6 min
SMILES: COc1ccc(-c2c(-c3ccc(OC)cc3)n(Cc3ccccc3)c3ncn(CCCO)c(=N)c23)cc1
